Patent US20170198363A1, “COMPOSITIONS AND METHODS FOR DETECTION OF SMALL MOLECULES” (COLORADO STATE UNIVERSITY RESEARCH FOUNDATION, priority 2015, published 2017)

By UniProt entry, the sequences of proteins in these tests, tags left out. Where a name states a change or a piece, a line headed by the entry shows the natural chain unless it says otherwise.
UniProt P0CY08: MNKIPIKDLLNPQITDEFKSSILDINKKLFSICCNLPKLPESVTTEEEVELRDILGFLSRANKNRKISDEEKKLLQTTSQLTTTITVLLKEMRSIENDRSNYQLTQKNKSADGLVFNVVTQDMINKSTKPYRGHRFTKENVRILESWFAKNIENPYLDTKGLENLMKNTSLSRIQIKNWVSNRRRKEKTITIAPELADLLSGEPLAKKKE

Target: degron-G-PRO1-V (Saccharomyces cerevisiae, UniProt P0CY08)
Test: HIS3 reporter growth assay, strain PJ69-4a
Type: cell-based, yeast
Details: HIS3 reporter strain PJ69-4a

pregnenolone
stimulation of growth of degron-G-PRO1-V: not
